For one molecule, radiochemical purity results are on record in patent US20250032651A1, “[177LU] LUTETIUM-PSMA I&T COMPOSITION AND DOSIMETRY, KIT, METHOD OF MAKING, AND METHOD OF USING THEREOF” (Curium US LLC, priority 2022, published 2025).

A short description of the data set: Radiochemical purity of ^177Lu-PSMA I&T by HPLC in different formulation compositions, hours post EOS (Example 3). It counts as physicochemical. The procedure:
The shelf life of ^177Lu-PSMA I&T is restricted by high rate of radiolysis during preparation and storage resulting in decomposition of ^177Lu-PSMA I&T and formation of radiochemical impurities. This eventually results in radiochemical purity of ^177Lu-PSMA I&T solution to fall below acceptance limit of 95.0%. • Formation of a particular radiochemical impurity of ^177Lu-PSMA I&T have been observed having retention time of about 5.2 minutes by HPLC with Phenomenex Luna C18 column (3 μm, 150 mm×4.6 mm) using 0.1% trifluoroacetic acid in water (Mobile phase A) and 0.1% trifluoroacetic acid in water:acetonitrile (10:90% v/v) (Mobile phase B) and isocratic method of 23% Mobile phase B at temperature of 40° C. The impurity referred herein having retention time of about 5.2 minutes is exemplified in the chromatograms in FIGS. 6A-11B. • In experiments conducted previously, lowering formulation radioactivity concentration was sufficient to reduce the formation of the impurity eluting at about 5.2 minutes and maintaining radiochemical stability of [^177Lu]Lu-PSMA I&T solutions above 95.0% for 72 hours. • In this example, six experiments were conducted where [^177Lu]Lu-PSMA I&T was prepared in different formulation compositions with varying ascorbic acid concentration, pH and radioactivity concentration. Product formulation details are described in Table 6.
• High radioactivity concentration (high RAC) in sample solutions were 1278 MBq/ml, 1281 MBq/ml and 1311 MBq/ml measured at the end of production. Low radioactivity concentration (low RAC) in sample solutions were 579 MBq/ml, 589 MBq/ml and 626 MBq/ml measured at the end of production. Radiochemical purity of each solution was followed by HPLC up to 71-93 hours post-radiolabeling.

On to `O=C([O-])CC[C@H](NC(=O)N[C@@H](CCCCNC(=O)CCCCCCC(=O)NCCCC[C@@H](NC(=O)[C@@H](Cc1ccccc1)NC(=O)[C@@H](Cc1ccc(O)c(I)c1)NC(=O)CC[C@H](C(=O)[O-])N1CCN(CC(=O)[O-])CCN(CC(=O)[O-])CCN(CC(=O)[O-])CC1)C(=O)[O-])C(=O)[O-])C(=O)[O-].[177Lu+3].[H+].[H+].[H+].[H+].[H+]` [^177Lu-PSMA I&T, (3S,7S,26R,29R,32R,37R)-29-benzyl-32-(4-hydroxy-3-iodobenzyl)-5,13,20,28,31,34-hexaoxo-37-(4,7,10-tris(carboxymethyl)-1,4,7,10-tetraazacyclododecan-1-yl)-4,6,12,21,27,30,33-heptaazaheptatriacontane-1,3,7,26,37-pentacarboxylic acid; lutetium-177 (III)], for which the radiochemical purity amounted to 99.4% (high radioactivity concentration, pH 4.5, 42.5 mg/ml ascorbic acid, 0 hours post EOS); 99.4% (low radioactivity concentration 579 MBq/ml, pH 4.5, 21 mg/ml ascorbic acid, 0 hours post EOS); 98.3% (low radioactivity concentration 579 MBq/ml, pH 4.5, 21 mg/ml ascorbic acid, 19 hours post EOS); 97.5% (low radioactivity concentration 579 MBq/ml, pH 4.5, 21 mg/ml ascorbic acid, 46 hours post EOS); 96.8% (low radioactivity concentration 579 MBq/ml, pH 4.5, 21 mg/ml ascorbic acid, 71 hours post EOS); 99.1% (low radioactivity concentration 588.5 MBq/ml, pH 4.5, 31 mg/ml ascorbic acid, 0 hours post EOS). The radiochemical purity (low radioactivity concentration 626 MBq/ml, pH 5.0, 31 mg/ml ascorbic acid, 71 hours post EOS) came out at 96.5%.
